Protein sequences, listed by entry. Tags and fused reporters are not part of them. Lines headed by an entry give the natural chain unless they say otherwise; changes in a name come on top.
UniProt Q60492, whole entry: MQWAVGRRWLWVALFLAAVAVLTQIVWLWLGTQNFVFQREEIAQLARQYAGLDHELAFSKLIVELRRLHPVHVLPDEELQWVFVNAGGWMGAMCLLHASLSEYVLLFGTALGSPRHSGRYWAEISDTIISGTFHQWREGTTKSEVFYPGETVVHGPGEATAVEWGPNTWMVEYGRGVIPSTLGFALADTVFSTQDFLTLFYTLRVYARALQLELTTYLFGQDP

In PMC8347176, “Novel High Affinity Sigma-1 Receptor Ligands from Minimal Ensemble Docking-Based Virtual Screening” (International Journal of Molecular Sciences, 2021):

Biological target: T1, sigma-1 receptor (S1R) (Cavia porcellus, UniProt Q60492)
T1 construct: Guinea pig liver tissue preparation abundantly contains sigma-1 receptor as compared to other tissues; from tissue; host or cells: guinea pig liver membrane homogenate
Experiment: Saturation binding of [3H]-(+)-pentazocine in guinea pig liver membrane preparations
Details: guinea pig liver membranes, 37 °C
Description: Male Wistar-Harlan rats (n = 10, 225–250 g) and guinea pigs (n = 10, 350–400 g) were handled according to the European Communities Council Directive (2010/63/EU) and to the Regulations on Animal Protection (40/2013. (II. 14.) Korm. r.) of Hungary. The researchers did the best effort to minimize the number of animals and their suffering. Preparation of guinea pig and rat liver homogenates was performed according to a previous method with a slight modification. Euthanized male guinea pig and rats were killed by decapitation, and their livers were removed rapidly. […] The protein content of the samples was measured by the Bradford method and samples were diluted in assay buffer to obtain the appropriate amount for the assay.
The incubation was terminated by diluting the samples with an ice-cold wash buffer (50 mM of Tris–HCl, pH 8.0), followed by repeated washing and rapid filtration through Whatman GF/B glass fiber filters (Whatman Ltd., Maidstone, UK) presoaked with 0.1% polyethyleneimine. […] Filters were air-dried and immersed into Ultima Gold MV scintillation cocktail, and then radioactivity was measured with a TRI-CARB 2100TR liquid scintillation analyzer (Packard, Perkin Elmer, Waltham, MA, USA).

CC(C)=CCN1CC[C@]2(C)c3cc(O)ccc3C[C@H]1[C@H]2C [[^3H]-(+)-pentazocine]
maximal density of binding sites (Bmax): 1072 fmol/mg protein | maximal density of binding sites (Bmax) (listed as [3H]-(+)-pentazocine): 1072 ± 20 fmol/mg protein
